## Ab-14 light chain CDR variants: yeast mating affinities

Values reported by Li et al. 2023, doi:10.1038/s41467-023-39022-2 (FLAb copy).

Target peptide (SARS-CoV-2 spike, HR2 region): PDVDLGDISGINAS

The variants keep the heavy chain, the linker and the frameworks of Ab-14 (scFv order VH, a (GGGGS)3 linker, VL).
VH: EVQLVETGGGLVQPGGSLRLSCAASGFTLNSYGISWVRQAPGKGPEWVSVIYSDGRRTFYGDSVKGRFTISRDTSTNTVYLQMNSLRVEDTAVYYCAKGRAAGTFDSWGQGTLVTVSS
VL: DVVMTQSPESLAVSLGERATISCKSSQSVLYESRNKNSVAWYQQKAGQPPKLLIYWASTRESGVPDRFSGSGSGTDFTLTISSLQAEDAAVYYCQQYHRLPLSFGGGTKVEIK

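These sequences belong to a second round, designed from the earlier measurements on random variants of the parent. Several design methods are mixed in this list. Affinity was read by AlphaSeq, a pooled yeast mating assay with surface-displayed partners. Binding brings cells together so that they mate, and sequencing counts the barcode pairs among the diploids. Read counts were normalised to the haploid input and turned into Kd by a linear fit to BCL2-family pairs of known affinity, for each replicate. The assay was run in six technical replicates.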

Each variant is given by its three light chain CDRs, as the data file delimits them; those of the parent are KSSQSVLYESRNKNSVA, WASTRES, QQYHRLPLS. This list holds designs with more than six substitutions. The Kd shown is the geometric mean over detected replicates; a lower Kd is a better binder.

* KMSQSMGYGERNKNSVA / NASQRMS / QQYHRLPLS: 730 pM (6 of 6 replicates)
* KLSQSVEYQSRDKNAVA / NAQTRES / QQYHRLPLS: 510 pM (6 of 6 replicates)
* MLSQTVDYNYTAGNSVA / EVTEKCN / QQYKRLPLS: 8.8 nM (6 of 6 replicates)
* TLYGLSNSMSKNKNNVA / EMSTREA / QQYDRLPLV: 2.0 nM (6 of 6 replicates)
* MISQLYNMGTFAINSVA / QASIRNS / QQYDRLPLM: 310 nM (3 of 6 replicates)
* KLLQNVMTEGRIRNNVA / HMTMRED / QQYWRLPLS: 8.9 nM (5 of 6 replicates)
* MVNTNLVHQAQRDNSIA / EADMVAA / QDYDRLPLI: 66 nM (1 of 6 replicates)
* MLGDVAQGLSRKEDSVA / DNSTRES / QQYDRLPLS: 1.0 µM (5 of 6 replicates)
* KIGMTLNQLLEKKNNVA / DLVLREN / QQYHRLPLS: 2.9 nM (6 of 6 replicates)
* HIGGVLEGNNVKGRSVA / HMNTRED / QQYDRLPLS: 1.8 nM (6 of 6 replicates)
* KLEFSVDYEDRNKNAVA / NASTREK / QQYHRLPLS: 640 pM (6 of 6 replicates)
* HMSMLTMMGMRHRNSVA / QMTMREN / QQYDRLPLV: 10 nM (6 of 6 replicates)
* KLRQSAHIESFNKNNVA / EMTTRES / QSYDRLPLS: 3.9 nM (6 of 6 replicates)
* VLSASELYEDRPKNSVA / NASQRES / QQYHRLPLS: 600 pM (6 of 6 replicates)
* HMSMLTLQGMRQRNSVA / QMTTREN / QQYDRLPLA: 440 nM (6 of 6 replicates)
* KLRQSCLYEDRNKNSVA / NASQRCS / QQYHRLPLS: 1.4 nM (6 of 6 replicates)
* TISGMANQESTNKNSVA / ELTTRGS / QQYERLPLS: 4.5 nM (6 of 6 replicates)
* KISMMYRYEQQNSSSIA / EANTREN / QSYHRLPLS: 120 nM (4 of 6 replicates)
* HMSALTLGGMRARNSVA / QMTTREN / QQYDRLPLT: 9.8 nM (6 of 6 replicates)
* QYSENLEIYDQEQGNVA / HGEMRTE / QQYHKLPLS: 2.7 nM (6 of 6 replicates)
* KFLSLSLHQTGNLNSVA / DAEETQT / QQYMRLPLM: 3.4 nM (6 of 6 replicates)
* KFSQMVNTMSVSHSAVA / EMSTRPE / QQYNRLPLS: 2.9 nM (6 of 6 replicates)
* KLVQFMNRGTHHTSNIA / DAQNRSD / QQYARLPLA: 3.7 nM (6 of 6 replicates)
* MFSQGVMVGWLTRNSVA / NSSTREQ / QQYHRLPLS: 200 nM (6 of 6 replicates)
* KSTQSVLTESRNHSSVA / WASTREY / QQYHDLGLS: 280 nM (1 of 6 replicates)
* KLSQVTHSESINKNSIA / EMVTREV / QQYDRLPLS: 8.4 nM (6 of 6 replicates)
* TIDDEMPNHGFHWNSIA / GVSTVKQ / QQYDRLPLS: 13 nM (6 of 6 replicates)
* MIAMEIGIEDSKWQAVA / SNSVRAS / QQYGRLPFS: 85 nM (6 of 6 replicates)
* MLSQMTGLGMKASNSVA / QASMRFD / QQYYRLPLI: 10 nM (6 of 6 replicates)
* KLPNSSLYESRNKNQVA / SASERES / QQYHRLPLS: 2.3 nM (6 of 6 replicates)
* QIDSFYQHGTDAKKAMA / DGSVRTQ / QQYSRLPLS: 820 pM (6 of 6 replicates)
* KISMTSENQLKNRNSVA / ELVTRLN / QQYNRLPLS: 4.9 nM (6 of 6 replicates)
* KLRQVTEYESFHKNSVA / QTSTRES / QDYDRLPLS: 89 nM (6 of 6 replicates)
* MLSQMTGLGMKASNSVA / QASMRFN / QQYHRLPLM: 10 nM (6 of 6 replicates)
* ILNDTPMEQQIHMDAIA / QEAIRNA / QQYARLPLS: 7.4 nM (6 of 6 replicates)
* MISMMHASQYNEESSIA / DAEALNS / QQYHELPLS: 34 nM (1 of 6 replicates)
* KISQVTEYESRNKNNVA / DLSTRGS / QDYHRLPLS: 7.5 nM (6 of 6 replicates)
* TIADLMGHISKNMNNVA / DMDTRGD / QQYNRLPLS: 300 pM (6 of 6 replicates)
* QLQFLDVQYGVNEQAIA / EENQRMQ / QHYFRLPLS: 64 nM (6 of 6 replicates)
* QLLMATMQGTYNRNSVA / HAQVRND / QSYHRLPLS: 340 nM (3 of 6 replicates)
* KSSGQVCYGDRMKNSVA / NASTREQ / QQYHRLPLS: 4.1 nM (6 of 6 replicates)
* MISDLTMYGMRNVNSVA / DLSTRGS / QQYDRLPLS: 3.6 nM (6 of 6 replicates)
* KIGGVTNGISRNKNSVA / EQSTRES / QQYDRLPLS: 33 nM (6 of 6 replicates)
* QIYQAMHTLMQMKDNVA / DVNERGD / QQYYRLPLS: 4.5 nM (6 of 6 replicates)
* KLSLSMSYSHEGTRHIA / NGSNRCH / QQYHRLPLI: 140 nM (4 of 6 replicates)
* KIYYHGVLDGNEQNGIA / GQDIRQG / QQYYRLPLV: 230 nM (6 of 6 replicates)

A selection of 4 entries from above:

* MLSQMTGLGMKASNSVA / QASMRFN / QQYHRLPLM: 10 nM (6 of 6 replicates)
* TISGMANQESTNKNSVA / ELTTRGS / QQYERLPLS: 4.5 nM (6 of 6 replicates)
* KLSLSMSYSHEGTRHIA / NGSNRCH / QQYHRLPLI: 140 nM (4 of 6 replicates)
* KLEFSVDYEDRNKNAVA / NASTREK / QQYHRLPLS: 640 pM (6 of 6 replicates)

In the paper, a design with two or fewer of six values counts as a poor binder. Nonspecific signal, from three strains lacking the peptide, appeared in 4% of pairings of all light chain designs, centred on 430 nM (5% of these signals below 38 nM); values are not corrected for it. The range of this assay differs from that of the first round, and the authors advise against merging the two.